In patent US20230192679A1, “CRYSTALLINE FORMS, PHARMACEUTICAL COMPOSITIONS AND METHODS OF USE THEREOF” (Tango Therapeutics, Inc., priority 2021, published 2023):

Assays:
[1] = tested on: MTAP-deleted CDX and PDX models; details: 120 mpk BID
[2] = tested on: orthotopic U87MG MTAP-null GBM CDX; details: 120 mpk BID; monitored maximum of 110 days
[3] = Brain penetration: CSF and plasma after oral administration; details: non-human primates, oral 10 mg/kg

Cc1cc(NC(=O)C(=O)N2C[C@@H](C)CC[C@@H]2c2ccc3scnc3c2)cnc1N [PRMT5 inhibitor of formula (I), N-(6-amino-5-methylpyridin-3-yl)-2-((2R,5S)-2-(benzo[d]thiazol-5-yl)-5-methylpiperidin-1-yl)-2-oxoacetamide]
antitumor response (% growth relative to vehicle) [1]: strong, lineage agnostic antitumor response
median survival benefit relative to vehicle [2]: 53 days
brain penetration [3]: brain-penetrant
